The text below walks through data of PubChem BioAssay AID1778 (Sanford-Burnham Center for Chemical Genomics, 2009).

Sequences of proteins named here, by UniProt entry; tags and fusion partners are left off. A change or cut given only in a name is not applied to a line headed by its entry.
UniProt P41145: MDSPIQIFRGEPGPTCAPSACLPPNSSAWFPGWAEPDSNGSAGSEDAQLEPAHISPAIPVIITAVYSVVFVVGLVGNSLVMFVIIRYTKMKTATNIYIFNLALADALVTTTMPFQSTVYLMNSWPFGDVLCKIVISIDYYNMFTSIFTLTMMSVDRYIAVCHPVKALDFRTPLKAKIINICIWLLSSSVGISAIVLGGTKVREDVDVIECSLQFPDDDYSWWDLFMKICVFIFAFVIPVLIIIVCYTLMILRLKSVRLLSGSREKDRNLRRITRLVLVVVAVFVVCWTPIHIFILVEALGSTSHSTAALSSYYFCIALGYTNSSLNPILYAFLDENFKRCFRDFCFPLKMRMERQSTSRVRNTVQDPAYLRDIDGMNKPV

Molecules are shown by their SMILES. This is one part of the list. Results with a measured potency or affinity are listed apart. Calls of active or inactive are those of the source. No stated cut-off is given here; in the data, active means inhibition above about 50%; inactive means the rest.

This test addresses Kappa-type opioid receptor (Homo sapiens) (UniProt P41145). Nature of the test: KOR antagonists, beta-arrestin recruitment, cell-based, luminescence, uHTS (AID 1778). The settings on record: antagonist mode, at 10 µM, active compounds read high.
As for `COCCN1CCn2c(nc3cc(NC(=O)Cn4nc(C)c5ccccc5c4=O)ccc32)C1`, the inhibition was inactive: 41.4%.

Take `COc1ccc(CCNC(=O)[C@H](C)NC(=O)N2CCn3c2nc2ccccc23)cc1OC`: the inhibition was inactive: 5.8%.

With `CC(C)[C@H](NC(=O)N1CCn2c1nc1ccccc12)C(=O)NCc1ccc(F)cc1`, the inhibition was inactive: -19.4%.

Turning to `Cn1c(=O)c2ncn(CC(=O)Nc3ccc(N4CCOCC4)cc3)c2n(C)c1=O`, the inhibition is inactive: -6.6%.

On to `CCOC(=O)C1CCCN(C(=O)Cn2cnc3c2c(=O)n(C)c(=O)n3C)C1` (configuration not stated), for which the inhibition was inactive: -34%.

On to `O=C(C1CCCN1S(=O)(=O)c1cccc2cccnc12)N1CCn2c1nc1ccccc12` (configuration not stated), for which the inhibition was inactive: 1.1%.

On to `c1ccc(-c2nn[nH]n2)c(-c2nn[nH]n2)c1`, for which the inhibition was inactive: -8.3%.

For the compound `O=C(Cn1c(-c2ccco2)nc2ccccc21)N1CCCCC1`, the inhibition is inactive: 11.8%.

Regarding `CCOC(=O)NC(Sc1ccccc1)C(Cl)(Cl)Cl` (configuration not stated), the inhibition was inactive: 20%.

As to `Cc1ccc(NP(=O)(Oc2cccc(C)c2)Oc2cccc(C)c2)nc1`, the inhibition was inactive: -51%.

As to `O=c1[nH]c2ccccc2n1C1CCN(CCCC(c2ccc(F)cc2)c2ccc(F)cc2)CC1`, the inhibition is inactive: 19.3%.

Turning to `Cc1ccc(Cn2c(=O)c3c(nc4n3CCN4Cc3ccco3)n(C)c2=O)cc1`, the inhibition was inactive: -0.9%.

For the compound `COc1cc(/C=N/NC(=O)Cn2cnc3c2c(=O)n(C)c(=O)n3C)ccc1O`, the inhibition was inactive: 16.6%.

On to `CCSc1nc2ccccc2n1CC(=O)N1CCOCC1`, for which the inhibition was inactive: 3.2%.

Turning to `O=C(NC1CCS(=O)(=O)C1)NP(=S)(Oc1ccccc1)Oc1ccccc1` (configuration not stated), the inhibition is inactive: -20.5%.

For `COc1cccc(NC(=O)[C@H](C)NC(=O)N2CCn3c2nc2ccccc23)c1`, the inhibition was inactive: 25%.

Regarding `S=C(Nc1ccccc1)N1CCn2c1nc1ccccc12`, the inhibition was inactive: -17.7%.

Take `COc1cccc(/C=N/NC(=O)Cn2cnc3c2c(=O)n(C)c(=O)n3C)c1`: the inhibition is inactive: -23.8%.

`c1ccc(CN2CCN(CCN3CCn4c3nc3ccccc34)CC2)cc1`: the inhibition is inactive: 10.6%.

Regarding `Cc1nc2ccccc2n1C1CC(=O)N(Cc2ccccc2)C1=O` (configuration not stated), the inhibition was inactive: -25.2%.

As for `CC(c1ccccc1)N1CCn2c(nc3cc(NS(C)(=O)=O)ccc32)C1` (configuration not stated), the inhibition is inactive: 4.5%.

As for `COc1ccccc1C(=O)Nc1ccc2c(c1)nc1n2CCN(C2CCCCC2)C1`, the inhibition was inactive: -40.6%.

On to `O=C(Cn1c(-c2cscn2)nc2ccccc21)Nc1ccccc1F`, for which the inhibition was inactive: -42.7%.

With `O=C(Nc1nc2ccccc2n1CCN1CCCCC1)c1ccco1`, the inhibition is inactive: 9.8%.

Take `CCC(=O)Nc1cccc(C(=O)/C=C/c2cc(Br)ccc2OC)c1`: the inhibition was inactive: 25.1%.

For `O=S(=O)(c1ccccc1)c1nnn2c1nc(NC1CCN(Cc3ccccc3)CC1)c1ccccc12`, the inhibition was inactive: -32.7%.

With `CC(O)CNc1nc2ccccc2n1CC(=O)NCCc1ccc(Cl)cc1` (configuration not stated), the inhibition is inactive: 9.6%.

Take `O=C(Nc1nc2ccccc2n1CCN1CCCCC1)C1CCCCC1`: the inhibition is inactive: 30.3%.

Consider `CC(NC(=O)CCNC(=O)N1CCn2c1nc1ccccc12)c1ccccc1` (configuration not stated), for which the inhibition was inactive: -56.2%.

On to `CC1Cc2ccccc2N1C(=O)Cn1cnc2c1c(=O)n(C)c(=O)n2C` (configuration not stated), for which the inhibition was inactive: -13.7%.

On to `Cn1c(=O)c2c(nc(CN3CCN(C(=O)c4ccco4)CC3)n2CC(N)=O)n(C)c1=O`, for which the inhibition is inactive: -1.9%.

Consider `CC(C)NC(=O)Cn1c(SCC(=O)N2c3ccccc3CC2C)nc2ccccc21` (configuration not stated), for which the inhibition was inactive: -6.9%.

Turning to `O=C(c1ccc(Cl)cc1)N1CCn2c1nc1ccccc12`, the inhibition is inactive: -25.1%.

Consider `CCOC(=O)CSc1nc2ccccc2n1CC(=O)N(C(C)C)C(C)C`, for which the inhibition was inactive: -14.3%.

For the compound `O=S(=O)(c1ccccc1)N1CCn2c(nc3ccccc32)C1`, the inhibition was inactive: -32.6%.

Turning to `O=C1NCN(c2ccccc2)C12CCNCC2`, the inhibition is inactive: -19.1%.

On to `CCCS(=O)(=O)N1CCn2c(nc3ccccc32)C1`, for which the inhibition was inactive: -26.5%.

Turning to `CC(=O)NC(C)c1nc2ccccc2n1CC(=O)N1C(C)CCCC1C` (configuration not stated), the inhibition was inactive: 22.9%.

On to `Cc1ccc(CN2C(=O)c3ccccc3NC23CCN(Cc2ccccc2)CC3)cc1`, for which the inhibition is inactive: -39%.

On to `O=C(OC1CN2CCC1CC2)c1ccccc1` (configuration not stated), for which the inhibition was inactive: 6.6%.

Take `CC(O)CNc1nc2ccccc2n1CC(=O)NC12CC3CC(CC(C3)C1)C2` (configuration not stated): the inhibition was inactive: 10.1%.

`CC1CN(CCn2cnc3c(N)ncnc32)CC(C)O1` (configuration not stated): the inhibition was inactive: 16.5%.

Consider `O=C1CC(N2CCC(n3c(=O)[nH]c4ccccc43)CC2)C(=O)N1Cc1ccccc1` (configuration not stated), for which the inhibition is inactive: -9.2%.

In the case of `Cc1ccc2c(c1)C1CN(C)CCC1N2C(=O)c1cccc(S(=O)(=O)N(C)C)c1` (configuration not stated), the inhibition is inactive: 10.9%.

For the compound `O=C(CCCCCNC(=O)N1CCn2c1nc1ccccc12)NCc1ccc(F)cc1`, the inhibition was inactive: -2.8%.

Consider `CC(C)N(C(=O)Cn1c(SCC(=O)Nc2nccs2)nc2ccccc21)C(C)C`, for which the inhibition was inactive: 24.1%.

As for `Cc1ccc2c(c1)C1CN(C)CCC1N2S(=O)(=O)c1ccccc1` (configuration not stated), the inhibition is inactive: -4%.

As to `CC(C)[C@H](NC(=O)N1CCn2c1nc1ccccc12)C(=O)NCCc1ccccc1`, the inhibition is inactive: 19.5%.

As to `CN1CCC(N(C)c2ccc(C(N)=O)cc2[N+](=O)[O-])CC1`, the inhibition is inactive: -41.5%.

Take `Cc1ccc2c(c1)C1CN(C)CCC1N2C(=S)NC(=O)c1ccc(Cl)cc1Cl` (configuration not stated): the inhibition is inactive: -8.9%.

As to `O=C(Cn1c(=O)n(CC(=O)NCc2ccccc2)c2ccccc21)NCc1ccccc1`, the inhibition is inactive: -4.5%.

Take `CC(/C=N\NC(=O)Cn1c(C)nc2ccccc21)=C\c1ccccc1`: the inhibition is inactive: -2.6%.

In the case of `CCCC(=O)Nc1ccc2c(c1)nc1n2CCN(CCOC)C1`, the inhibition was inactive: -21.8%.

As for `Cc1ccc(C)c(Cn2c(=O)c3c(nc4n3CCN4Cc3ccco3)n(C)c2=O)c1`, the inhibition is inactive: -10.1%.

With `CCC(=O)N1C2C3N(C(=O)CC)C1C1N(C(=O)CC)C(C(N1C(=O)CC)N3C(=O)CC)N2C(=O)CC`, the inhibition was inactive: -5.5%.

On to `Cn1c(=O)c2c(ncn2CC(=O)NC2CCCCC2)n(C)c1=O`, for which the inhibition was inactive: 12.8%.

Consider `COC(=O)c1cc2c(s1)N=C(c1ccccc1)N(C)P2(=O)N1CCOCC1` (configuration not stated), for which the inhibition is inactive: -4%.

For `CC(C)NC(=O)Cn1cnc2c1c(=O)n(C)c(=O)n2C`, the inhibition was inactive: 10.4%.

Consider `CC(/C=N/NC(=O)Cn1cnc2c1c(=O)n(C)c(=O)n2C)=C\c1ccco1`, for which the inhibition was inactive: -28.5%.

For `Cn1c(=O)c2c(ncn2CC(=O)Nc2ccccc2N2CCOCC2)n(C)c1=O`, the inhibition was inactive: 26.2%.

Turning to `CCc1cccc(CC)c1N(COC)C(=O)Cn1c(C(C)O)nc2ccccc21` (configuration not stated), the inhibition was inactive: -10.7%.

In the case of `Cc1ccc(OP(=O)(Nc2ccccn2)Oc2ccc(C)cc2)cc1`, the inhibition is inactive: 8%.

Consider `CC(=O)NC(SC(=S)N(CC(C)C)CC(C)C)C(Cl)(Cl)Cl` (configuration not stated), for which the inhibition was inactive: 12.7%.

On to `CCOC(=O)C1=C(Cn2cnc3ccccc32)NC(=O)NC1c1ccc(Cl)cc1` (configuration not stated), for which the inhibition is inactive: -5.6%.

For the compound `Cc1ccccc1OP(=O)(Nc1ccccn1)Oc1ccccc1C`, the inhibition is inactive: 4.9%.

With `CCc1cccc(C)c1N(C(=O)Cn1c(CO)nc2ccccc21)C(C)COC` (configuration not stated), the inhibition is inactive: -34.2%.

For the compound `CC1CCCN(C(=O)Cn2cnc3c2c(=O)n(C)c(=O)n3C)C1` (configuration not stated), the inhibition was inactive: 3.9%.

`CN(C)C(=O)Oc1noc2ccccc12`: the inhibition was inactive: -12.5%.

`Cc1ccc(OCCNC(=O)Cn2cnc3c(=O)n(C)c(=O)n(C)c32)cc1C`: the inhibition is inactive: 18.2%.

On to `CN(C)CCn1cnc2ccccc21`, for which the inhibition was inactive: -24%.

On to `COCCNC(=O)Cn1c(=O)n(C)c2ccccc21`, for which the inhibition is inactive: 15.9%.

Turning to `Cn1c(=O)c2c(ncn2CC(=O)N2CCN(c3ccccc3)CC2)n(C)c1=O`, the inhibition is inactive: 7.4%.

Take `COCCN1CCn2c(nc3cc(Nc4nnc(C)c5ccccc45)ccc32)C1`: the inhibition was inactive: 25.7%.

Consider `Cc1ccc(C)c(S(=O)(=O)N2CCN(C(=O)Cn3c(C(F)(F)F)nc4ccccc43)CC2)c1`, for which the inhibition is inactive: 2%.

Regarding `COC(=O)C1=C(C)N=C2SCCC(=O)N2C1/C=C/c1ccccc1` (configuration not stated), the inhibition is inactive: -5.4%.

With `CC1CCN(C(=O)Cn2c(SCC(=O)Nc3nccs3)nc3ccccc32)CC1`, the inhibition was inactive: -34.1%.

In the case of `CCOC(=O)c1ccccc1NC(=O)Cn1c(-c2nonc2N)nc2ccccc21`, the inhibition is inactive: -155%.

In the case of `CC(C)NC(=O)CC1C(=O)N(Cc2ccccc2)C(C)c2nc3ccccc3n21` (configuration not stated), the inhibition was inactive: 29.6%.

With `C(=N\c1nc2ccccc2n1CCN1CCCCC1)/c1ccc2c(c1)OCO2`, the inhibition is inactive: 12.2%.

On to `O=P(Nc1nc2ccc(Cl)cc2s1)(c1ccccc1)c1ccccc1`, for which the inhibition was inactive: 24.5%.

Regarding `O=C(Cn1c(Cc2ccccc2)nc2ccccc21)NCc1ccc2c(c1)OCO2`, the inhibition is inactive: 7.3%.

Turning to `O=C(O)c1ccccc1[As](=O)(O)O`, the inhibition is inactive: 19.3%.

For the compound `O=C(Cn1c(COc2ccccc2)nc2ccccc21)Nc1cc(Cl)cc(Cl)c1`, the inhibition was inactive: -23.5%.

Regarding `CC(=O)Nc1ccc([As](=O)(O)O)cc1`, the inhibition is inactive: 18.5%.

Take `Cn1c(=O)c2ncn(CC(=O)Nc3ccc4c5c(cccc35)CC4)c2n(C)c1=O`: the inhibition is inactive: 29.7%.

As for `CCOc1cccc(N2C(=O)CC(n3cnc4ccccc43)C2=O)c1` (configuration not stated), the inhibition is inactive: 14.2%.

Turning to `Cc1ccc2c(c1)C1CN(C)CCC1N2C(=O)c1ccccc1NS(=O)(=O)c1ccc(F)cc1` (configuration not stated), the inhibition was inactive: -25.8%.

`O=C(Cn1c(NCCO)nc2ccccc21)NCC(F)(F)F`: the inhibition was inactive: -19.7%.

For `CC(C)[C@H](NC(=O)N1CCn2c1nc1ccccc12)C(=O)NCc1ccccc1Cl`, the inhibition is inactive: -45%.

Take `O=C(Cn1cnc2ccccc21)NCc1ccccc1`: the inhibition is inactive: 20.8%.

`Cn1c(=O)n(CCN2CCOCC2)c(=O)c2c1nc1n2CCN1c1ccc(Oc2ccccc2)cc1`: the inhibition is inactive: -8%.

Regarding `COc1ccc(N2CCN(C(=O)Cn3cnc4c3c(=O)n(C)c(=O)n4C)CC2)cc1`, the inhibition is inactive: 9.4%.

For orientation: inhibition means the change of the read-out against control, counted positive when it falls.
